Yeast mating assay B: variants of the scFv Ab-14

Values reported by Li et al. 2023, doi:10.1038/s41467-023-39022-2 (FLAb copy).

Target peptide (SARS-CoV-2 spike, HR2 region): PDVDLGDISGINAS

Parent: Ab-14, a human scFv built as VH, a (GGGGS)3 linker, VL. Only the CDRs of the heavy chain vary.
VH: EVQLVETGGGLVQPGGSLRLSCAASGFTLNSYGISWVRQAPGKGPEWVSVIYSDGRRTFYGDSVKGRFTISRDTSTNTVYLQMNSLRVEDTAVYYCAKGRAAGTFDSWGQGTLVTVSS
VL: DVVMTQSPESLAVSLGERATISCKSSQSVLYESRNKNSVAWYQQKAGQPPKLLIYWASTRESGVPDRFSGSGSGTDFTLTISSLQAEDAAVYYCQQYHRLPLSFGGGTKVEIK

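The starting antibody came from a phage panning campaign against this peptide. This is the validation round: designs drawn from the data on random variants, tested in the same kind of assay. Their group label is 14H_Rand (Rand: our label for a block that the file lists under HC and that is probably the random mutants of the ten best first-round binders). In AlphaSeq, yeast of one mating type display the scFv and yeast of the other type display the target. Binding brings cells together so that they mate, and sequencing counts the barcode pairs among the diploids. Scores were corrected for input abundance and mapped to Kd with protein pairs of known affinity run in the same pool. The assay was run in six technical replicates.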

Positions count from residue 1 of the parent VH; S31E puts E in place of S. Scale: log10 of Kd in nM, estimated from mating counts; low values are strong binders. An entry "n.d." has no value in the source: the pair was not observed among the diploids in that replicate. This suggests poor binding but is not conclusive.

changes | log10 Kd (nM) by replicate | control signals
S31E+G33A+G99L+G103V+S107Q | n.d. n.d. n.d. n.d. n.d. n.d. | 0 of 18
R57L+G61D+R100Q+A101L | n.d. n.d. n.d. n.d. n.d. n.d. | 0 of 18
L29I+N30D+S31R+I34A+G61F+V64W+F105A+D106L | n.d. n.d. n.d. n.d. n.d. n.d. | 0 of 18
F27H+G33S+G61S+A102G | n.d. n.d. n.d. n.d. n.d. n.d. | 0 of 18
T28Y+S53F+G61D+R100Q+A101L | 0.29 1.99 0.74 0.67 1.18 0.50 | 0 of 18
G26N+T28D+G55T+A101W+T104W+D106N | n.d. n.d. n.d. n.d. n.d. n.d. | 0 of 18
G55P+G61S+R100E+A102G+G103C+T104H | n.d. n.d. n.d. n.d. n.d. n.d. | 0 of 18
S31W+S53A+F59R+G99N+F105G+D106K | n.d. n.d. n.d. n.d. n.d. n.d. | 0 of 18
G61S+S63T+A102G+F105W | n.d. n.d. n.d. n.d. n.d. n.d. | 0 of 18
S31Q+S35I+D54V+G61S+V64C+T104F | n.d. n.d. n.d. n.d. n.d. n.d. | 0 of 18
T28D+L29V+T104W+D106N | n.d. n.d. n.d. n.d. 1.62 n.d. | 0 of 18
S31Q+G61S+D62W+T104F | n.d. n.d. n.d. n.d. n.d. n.d. | 0 of 18
T28G+I51A+G61S+A102G+D106L | n.d. n.d. n.d. n.d. n.d. n.d. | 0 of 18
S31E+Y52L+G103V+S107Q | n.d. n.d. n.d. n.d. n.d. n.d. | 0 of 18
G26L+S31D+Y32E+G33F+R57K+D62C+G103L+D106I | n.d. n.d. n.d. n.d. n.d. n.d. | 0 of 18
T58W+G61D+R100Q+A101L+F105D | n.d. n.d. n.d. n.d. n.d. n.d. | 0 of 18
G26H+S31F+G61S+T104S | n.d. n.d. n.d. n.d. n.d. n.d. | 0 of 18
S31Q+Y32V+G61S+T104F | n.d. 2.15 n.d. n.d. n.d. n.d. | 0 of 18
L29Q+T58A+G61D+R100Q+A101L | n.d. n.d. n.d. n.d. n.d. 1.96 | 1 of 18 (4.16)
T28D+T58F+R100L+T104W+D106N | n.d. n.d. n.d. n.d. n.d. n.d. | 0 of 18
T28D+S35C+T104W+D106N | n.d. n.d. n.d. n.d. n.d. n.d. | 0 of 18
N30I+S31E+R56Y+G103V+F105H+D106L+S107Q | n.d. n.d. n.d. n.d. n.d. n.d. | 0 of 18
S35T+S53A+A102W+F105N+D106K+S107E | n.d. n.d. n.d. n.d. n.d. n.d. | 0 of 18
S31Q+G33R+S35E+G55S+Y60A+G61S+G103A+T104F+S107W | n.d. n.d. n.d. n.d. n.d. n.d. | 1 of 18 (1.26)
S53A+Y60W+A102F+F105N+D106K | n.d. n.d. n.d. n.d. n.d. n.d. | 0 of 18
S31E+T58Y+G103V+D106S+S107Q | n.d. n.d. 2.29 n.d. n.d. n.d. | 1 of 18 (2.27)
S31D+D54A+G103L+D106I | n.d. n.d. n.d. n.d. n.d. n.d. | 0 of 18
S31D+I34T+F59Q+G61I+A101R | n.d. n.d. n.d. n.d. n.d. n.d. | 0 of 18
S31E+D54F+G55K+G103V+S107Q | n.d. n.d. n.d. n.d. n.d. n.d. | 0 of 18
L29S+S31Q+D54F+G61S+T104F | n.d. n.d. n.d. n.d. n.d. n.d. | 0 of 18
G26N+S31E+G61T+G99Y+A101F | n.d. n.d. n.d. n.d. n.d. n.d. | 0 of 18
L29G+S31E+R57Q+G61T+A101F | n.d. n.d. n.d. n.d. n.d. n.d. | 2 of 18 (2.44)
T28D+I34Q+I51S+S53C+Y60T+T104W+D106N | n.d. n.d. n.d. n.d. n.d. n.d. | 0 of 18
F27M+T28D+T58A+T104W+D106N | n.d. n.d. n.d. n.d. n.d. n.d. | 0 of 18
T28P+S31E+R56M+G61T+A101F+T104Y+F105V | n.d. n.d. n.d. n.d. n.d. n.d. | 0 of 18
S31Q+F59E+G61S+T104F | 1.09 1.08 2.24 1.36 2.70 0.99 | 0 of 18

A selection of 2 entries from above:

changes | log10 Kd (nM) by replicate | control signals
L29Q+T58A+G61D+R100Q+A101L | n.d. n.d. n.d. n.d. n.d. 1.96 | 1 of 18 (4.16)
F27M+T28D+T58A+T104W+D106N | n.d. n.d. n.d. n.d. n.d. n.d. | 0 of 18

Three control strains display no target. For all heavy chain designs, 1% of the pairings with them gave a signal, with a median of 2.08 and one signal in twenty below 0.84, so weak values seen in few replicates may be background. For each scFv, signals with the empty controls are counted beside the result, with their mean in brackets. The authors averaged sequences with at least three values out of six and counted those with two or fewer as poor binders. A sequence measured in both rounds can read differently, since the two assays cover different ranges.